# AlphaSeq binding of Ab-14 heavy chain variants to a spike HR2 peptide

The measurements come from Engelhart et al. 2022 (doi:10.1038/s41597-022-01779-4) through the FLAb antibody collection.

Binding partner: SARS-CoV-2 spike HR2 peptide, sequence PDVDLGDISGINAS.

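The starting antibody came from a phage panning campaign against this peptide. AAYL49 was designed without a model: most single CDR substitutions and a random sample of double and triple ones. The assay is AlphaSeq: two haploid yeast populations carry antibody and antigen on their surface. Pairs that bind mate more often; barcode pairs of the diploids are counted by sequencing. A regression on co-assayed BCL2-family reference pairs converts the normalised counts of each replicate to an apparent Kd. Each pool was mated in three replicate cultures.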

Parent: Ab-14, a human scFv built as VH, a (GGGGS)3 linker, VL. Only the CDRs of the heavy chain vary.
VH: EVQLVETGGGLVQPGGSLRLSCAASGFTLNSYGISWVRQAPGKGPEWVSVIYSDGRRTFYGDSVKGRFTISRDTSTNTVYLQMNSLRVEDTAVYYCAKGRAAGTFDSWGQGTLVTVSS
VL: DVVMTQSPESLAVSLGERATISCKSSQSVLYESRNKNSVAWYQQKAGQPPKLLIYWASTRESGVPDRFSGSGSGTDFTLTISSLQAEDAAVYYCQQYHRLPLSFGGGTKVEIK

Substitutions are numbered in sequence along the VH above, starting at 1 (not Kabat).
This list gathers variants with a substitution at T104 (VH, numbered from residue 1).
Numbers give log10(Kd / nM), so 0 is 1 nM and 3 is 1 µM. Smaller is tighter.
Averages over replicates are reported, and they cover detected replicates only.
An entry "nd" has no value in the source: the pair was not observed among the diploids in any replicate. This suggests poor binding but is not conclusive.

For G33W V50N T104V, the assay gave nd (0 of 3 replicates).
For K65H G99N T104M, the assay gave 1.45 (3 of 3 replicates).
For S63Y T104W D106I, the assay gave nd (0 of 3 replicates).
For S53G A101I T104S, the assay gave 1.49 (3 of 3 replicates).
For I34F R56T T104G, the assay gave 4.61 (1 of 3 replicates).
For F27N S35N T104Y, the assay gave nd (0 of 3 replicates).
For I51H T104N F105M, the assay gave 4.43 (1 of 3 replicates).
For A101K A102E T104D, the assay gave 5.10 (1 of 3 replicates).
For N30P I34K T104Q, the assay gave nd (0 of 3 replicates).
For V50D Y60N T104R, the assay gave 3.36 (1 of 3 replicates).
For G99Q T104C, the assay gave nd (0 of 3 replicates).
For L29H T104A, the assay gave 4.08 (2 of 3 replicates).
For T58L T104D, the assay gave 3.34 (1 of 3 replicates).
For T104S F105Q S107L, the assay gave nd (0 of 3 replicates).
For R100N A102P T104Y, the assay gave nd (0 of 3 replicates).
For S63L G99T T104W, the assay gave 1.97 (3 of 3 replicates).
For V64P T104C, the assay gave 3.47 (2 of 3 replicates).
For S31T G33Y T104A, the assay gave nd (0 of 3 replicates).
For I34R T104W, the assay gave 4.54 (3 of 3 replicates).
For S53A T104N, the assay gave 0.30 (3 of 3 replicates).
For Y52H T104R, the assay gave nd (0 of 3 replicates).
For I34V V64D T104H, the assay gave 4.24 (1 of 3 replicates).
For S31N R56E T104H, the assay gave nd (0 of 3 replicates).
For S35W Y60F T104F, the assay gave 4.84 (2 of 3 replicates).
For G26N S53A T104V, the assay gave 2.20 (3 of 3 replicates).
For A101V T104K D106P, the assay gave nd (0 of 3 replicates).
For I51V R57K T104C, the assay gave nd (0 of 3 replicates).
For F27C K65F T104S, the assay gave 4.27 (3 of 3 replicates).
For G99Q T104W S107R, the assay gave nd (0 of 3 replicates).
For S31A D62F T104L, the assay gave nd (0 of 3 replicates).
For I34A T104Y, the assay gave 4.71 (1 of 3 replicates).
For R100N A102E T104M, the assay gave nd (0 of 3 replicates).
For R57P V64H T104F, the assay gave 4.62 (2 of 3 replicates).
For G26P S31P T104K, the assay gave 6.00 (1 of 3 replicates).
For G55K T104C, the assay gave 4.45 (1 of 3 replicates).
For S63W G99Y T104D, the assay gave nd (0 of 3 replicates).
For L29V G55M T104I, the assay gave 4.98 (1 of 3 replicates).
For S31K K65A T104R, the assay gave nd (0 of 3 replicates).
For V50H G103D T104S, the assay gave nd (0 of 3 replicates).
For G26P A101N T104W, the assay gave 5.32 (1 of 3 replicates).
For G26W G33C T104V, the assay gave 4.00 (1 of 3 replicates).
For G26Y V64P T104G, the assay gave 4.21 (1 of 3 replicates).
For F27T A102K T104S, the assay gave 1.42 (3 of 3 replicates).
For Y52F G99D T104A, the assay gave nd (0 of 3 replicates).
For S35F G61Q T104E, the assay gave 3.97 (2 of 3 replicates).
For S31P G55Y T104S, the assay gave 4.26 (1 of 3 replicates).
For R57L T104N, the assay gave 3.72 (1 of 3 replicates).
For S35G D62M T104E, the assay gave nd (0 of 3 replicates).
For F27Q V50A T104Y, the assay gave nd (0 of 3 replicates).
For T58V T104D F105M, the assay gave 0.64 (3 of 3 replicates).
For I34Q D62V T104F, the assay gave nd (0 of 3 replicates).
For I51P T58A T104A, the assay gave nd (0 of 3 replicates).

The 6 strongest on average among those seen in every replicate, once more:

With S53A T104N the result was 0.30 (3 of 3 replicates).
With T58V T104D F105M the result was 0.64 (3 of 3 replicates).
With F27T A102K T104S the result was 1.42 (3 of 3 replicates).
With K65H G99N T104M the result was 1.45 (3 of 3 replicates).
With S53G A101I T104S the result was 1.49 (3 of 3 replicates).
With S63L G99T T104W the result was 1.97 (3 of 3 replicates).

In this assay the parent's reference entry averaged 0.65; its copy inside this library read 4.11 (one replicate of three).
Background: pairings of library AAYL49 with three empty control strains gave a value in 15% of cases (median 4.06, 5th percentile 2.83). Values in that range, when seen in few replicates, are hard to tell from nonspecific mating.